Laboratory results as given in patent US12203909B2, “Compositions for conjugating a sulfonephthalein dye to a substrate” (priority 2018, dated 2025).

Experiments:
[1] = SPD derivative UV-Vis spectral and chemical properties (Table 1); type: physicochemical; settings: pH sensitive wavelength of SPD^−2
Text: The HA and A^− concentrations are related by the Henderson-Hasselbalch equation: pH=pKa+log[A^−]/[H—A] where Ka is the acid dissociation constant, pKa is −log Ka, and [A^−] and [HA] are the concentrations of dissociated and undissociated dye acid form, respectively.
Such compounds are commonly used as pH sensitive indicators for determination of pH of aqueous solutions. […] The structure of suitable SPDs and their conjugate bases are shown generically below, and their spectral and chemical properties are reported in Table 1.
Unmodified SPDs have been used for the preparation of pH sensitive indicators adsorbed on the surface of suitable polymeric materials, such as cellulose based materials. […] In general, substitution with electron acceptor substituents (e.g., Cl, Br in the C2/C5 positions) results in a pKa shift to a lower pH range relative to PR, and substitution with electron donor substituents (e.g., C1-C3 alkyl in the C2, C4 and C5 positions) results in a pKa shift to a higher pH range. […] Examples of such SPDs include bromocresol purple and bromothymol blue.
Measurement of absorbance at specific wavelengths allows for the determination of the concentrations of the acidic and basic forms of the dye. These wavelengths are typically selected based upon the absorbance maxima for each specific dye, although other wavelengths can be employed albeit with diminished sensitivity.

[2] = for pKa / λ1, nm / λ2, nm: Table 3, PR derivatives; for λ1^pH 6/pH 9 Abs ratio: calculated as OD 430 nm pH 6.0/OD 430 nm pH 9.0

Compound | λ2, nm (SPD^−2 form) [1] [nm] | pKa [2] | λ1, nm [2] [nm] | λ2, nm [2] [nm] | λ1^pH 6/pH 9 Abs ratio [2] | extinction coefficient of λ1 ([2]; at the maximum SPD^−1 concentration) | extinction coefficient of λ2 ([2]; at the maximum SPD^−2 concentration)
Cc1cc(C2(c3ccc(O)c(C)c3)OS(=O)(=O)c3ccccc32)ccc1O [Cresol Red (CR), Cresol Red] | 565 | – | – | – | – | – | –
Dimethylol phenol red [Dimethylol phenol red (PR2)] | – | 8.6 | 429 | 565 | 1.8 | – | –
Monomethylol phenol red [Monomethylol phenol red (PR1)] | – | 7.4 | 430 | 565 | 5.5 | ~10,000 mol^−1L^−1 cm | ~20,000 mol^−1L^−1 cm
